{"sequences": {"note": "The chains behind the UniProt entries cited, without tags or fusion partners. Residues count along the entry.", "UniProt Q9NP99, 21-234 limits assumed": "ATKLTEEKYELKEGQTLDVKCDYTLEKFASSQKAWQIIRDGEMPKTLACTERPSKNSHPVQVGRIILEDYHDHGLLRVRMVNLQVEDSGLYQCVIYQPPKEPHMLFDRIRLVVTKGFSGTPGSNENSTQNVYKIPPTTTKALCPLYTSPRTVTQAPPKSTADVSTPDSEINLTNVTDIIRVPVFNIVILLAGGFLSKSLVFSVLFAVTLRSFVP", "UniProt Q9NP99, 21-205 limits assumed": "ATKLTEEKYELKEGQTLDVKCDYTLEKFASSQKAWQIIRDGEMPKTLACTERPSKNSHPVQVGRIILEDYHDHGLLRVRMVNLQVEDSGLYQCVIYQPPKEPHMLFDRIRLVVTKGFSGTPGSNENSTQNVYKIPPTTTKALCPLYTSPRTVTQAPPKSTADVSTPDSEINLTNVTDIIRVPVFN"}, "source": "patent US20260242465A1", "about": "(CELSIUS THERAPEUTICS, published 2026)", "binders": {"B1": {"name": "anti-TREM1 antibody agent clone A (antibody, human IgG1, kappa)", "heavy": "EVQLVESGGVLVQPGGSLRLSCAASGITFSNSWMSWVRQAPGKGLEWVANIKQDGSEKYYVDSVKGRFTISRDNAKESLFLQMNSLRAEDTAVYYCARGGISTFDIWGQGTMVTVSSASTKGPSVFPLAPSSKSTSGGTAALGCLVKDYFPEPVTVSWNSGALTSGVHTFPAVLQSSGLYSLSSVVTVPSSSLGTQTYICNVNHKPSNTKVDKKVEPKSCDKTHTCPPCPAPPVAGPSVFLFPPKPKDTLMISRTPEVTCVVVDVSHEDPEVKFNWYVDGVEVHNAKTKPREEQYNSTYRVVSVLTVLHQDWLNGKEYKCKVSNKALPAPIEKTISKAKGQPREPQVYTLPPSRDELTKNQVSLTCLVKGFYPSDIAVEWESNGQPENNYKTTPPVLDSDGSFFLYSKLTVDKSRWQQGNVFSCSVMHEALHNHYTQKSLSLSPGK", "light": "not shown", "notes": "heavy chain carries the IgG1 constant region with PVAdelG, light chain is kappa; also called anti-TREM1 clone A; Anti-TREM1 Antibody Clone A"}}, "key": {"[1]": {"molecular_target": "T1, human TREM1 on the cell surface (neutrophils, monocytes, transfected HEK293 cells) (human, UniProt Q9NP99 21-234)", "T1 construct": "Endogenous TREM1 on primary human neutrophils and monocytes, and TREM1 expressed on HEK293 cells in the polyspecificity array; also called cell surface TREM1; TREM1 receptor", "experiment": "flow cytometry, TREM1 receptor occupancy on enriched human monocytes activated with peptidoglycan (100 ng/ml) and PGLYRP1 (500 nM), 24 h"}, "[2]": {"molecular_target": "T1, human TREM1 on the cell surface …", "experiment": "flow cytometry, enriched human primary neutrophils (CD45+/CD66abce+), AF647-labelled antibody, three donors"}, "[3]": {"molecular_target": "T1, human TREM1 on the cell surface …", "experiment": "cell-based or functional assay"}, "[4]": {"molecular_target": "T1, human TREM1 on the cell surface …", "experiment": "cell-based or functional assay", "remark": "listed apart in the source"}, "[5]": {"molecular_target": "T1, human TREM1 on the cell surface …", "experiment": "flow cytometry, enriched human primary monocytes (CD45+/CD14+), AF647-labelled antibody, four donors per legend"}, "[6]": {"molecular_target": "T2, recombinant monovalent human TREM1-ECD (human, UniProt Q9NP99 21-205)", "T2 construct": "the whole entry is named; also called monomeric human TREM1-ECD protein", "experiment": "BLI; antibody on AHC sensor, monovalent TREM1-ECD in solution", "excerpt": "(§1) Sensors were monitored to establish a baseline.\n(§2) The coefficient of determination of the 1:1 model fit to the BLI sensorgrams is represented by the R\\hat{ }2 value. Data for human and cynomolgus monkey represents averages across three replicates. Data for pig, dog, rabbit, rat, and mouse represents averages across two replicates."}, "[7]": {"molecular_target": "T3, recombinant monovalent cynomolgus monkey TREM1-ECD (cynomolgus monkey)", "T3 construct": "whole entry named; also called cyno TREM1-ECD", "T3 chain": "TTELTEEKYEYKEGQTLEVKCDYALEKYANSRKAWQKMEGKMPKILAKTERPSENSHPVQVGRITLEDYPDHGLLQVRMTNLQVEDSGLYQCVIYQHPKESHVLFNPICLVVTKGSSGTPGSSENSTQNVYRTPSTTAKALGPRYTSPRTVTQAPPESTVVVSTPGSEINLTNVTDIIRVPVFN", "experiment": "BLI; antibody on AHC sensor, monovalent TREM1-ECD in solution", "excerpt": "as §1, §2"}}, "data": [{"binder": "B1", "values": [{"measurement": "EC50 (read off the curve)", "setting": "[1]", "result": "~0.04", "unit": "nM"}, {"measurement": "EC50 (read off the curve)", "setting": "[2]", "result": "~0.2", "unit": "nM"}, {"measurement": "IC50, inhibition of CCL3 secretion by primary human monocytes stimulated with PGN and PGLYRP1", "setting": "[3]", "result": 0.0215, "unit": "nM"}, {"measurement": "IC50, inhibition of CCL4 secretion by primary human monocytes stimulated with PGN and PGLYRP1", "setting": "[3]", "result": 0.0689, "unit": "nM"}, {"measurement": "IC50, inhibition of IL-1β secretion by primary human monocytes stimulated with PGN and PGLYRP1", "setting": "[3]", "result": 0.0188, "unit": "nM"}, {"measurement": "IC50, inhibition of IL-6 secretion by primary human monocytes stimulated with PGN and PGLYRP1", "setting": "[3]", "result": 0.0244, "unit": "nM"}, {"measurement": "IC50, inhibition of IL-23 secretion by primary human monocytes stimulated with PGN and PGLYRP1", "setting": "[3]", "result": 0.0155, "unit": "nM"}, {"measurement": "IC50, inhibition of TNFα secretion by primary human monocytes stimulated with PGN and PGLYRP1", "setting": "[3]", "result": 0.0181, "unit": "nM"}, {"measurement": "IC50, inhibition of CCL3 secretion by primary human neutrophils stimulated with PGN and PGLYRP1", "setting": "[4]", "result": 0.0223, "unit": "nM"}, {"measurement": "IC50, inhibition of CCL4 secretion by primary human neutrophils stimulated with PGN and PGLYRP1", "setting": "[4]", "result": 0.0249, "unit": "nM"}, {"measurement": "IC50, inhibition of IL-8 secretion by primary human neutrophils stimulated with PGN and PGLYRP1", "setting": "[4]", "result": 0.0223, "unit": "nM"}, {"measurement": "EC50 (read off the curve)", "setting": "[5]", "result": "~0.1", "unit": "nM"}, {"measurement": "Kd", "setting": "[6]", "result": 0.21, "unit": "nM"}, {"measurement": "Maximum BLI response", "setting": "[6]", "result": 0.385, "unit": "nm"}, {"measurement": "koff", "setting": "[6]", "result": "9.2e-05", "unit": "s⁻¹"}, {"measurement": "kon", "setting": "[6]", "result": 421000, "unit": "M⁻¹ s⁻¹"}, {"measurement": "koff", "setting": "[7]", "result": 0.00077, "unit": "s⁻¹"}, {"measurement": "kon", "setting": "[7]", "result": 392000, "unit": "M⁻¹ s⁻¹"}]}]}
